Structures can show the parent of a compound that is named as a salt.
What was measured:
[1] = biological target: PDE 7 (phosphodiesterase VII) (Homo sapiens (Human), UniProt Q13946); test: PDE 7 inhibiting effect (3H-cAMP hydrolysis, PDE 7 active fraction from MOLT-4 cells); format: biochemical; settings: PDE 7 fraction from MOLT-4 cells, 0.064 μM cAMP, 10 μM rolipram, 2 hours at 25° C.; read-out: PDE7 IC50
Protocol: Methods for Evaluating the PDE 7 Inhibiting Effect
The PDE 7 (phosphodiesterase VII) inhibiting effect of the compounds of the present invention was performed by the following method, which was modified assay method described in Biochemical. Pharmacol. 48(6), 1219-1223 (1994). • (1) The active fraction of PDE 7 (phosphodiesterase VII) was obtained. That is, MOLT-4 (obtainable from ATCC as ATCC No. CRL-1582), which was cell line of human acute lymphoblastic lymphoma T cells, was incubated in RPMI1640 culture medium containing 10% fetal bovine serum to obtain 5×10^8 MOLT-4 cells. The cells were collected by centrifugation and suspended with 10 mL of buffer solution A [25 mM of tris-HCl, 5 mM of 2-mercaptoethanol, 2 mM of benzamidine, 2 mM of EDTA, 0.1 mM of 4-(2-aminoethyl)benzenesulfonyl hydrochloride; pH 7.5], then homogenized by Polytron® homogenizer. The homogenate were centrifuged under 25,000×G for 10 minutes at 4° C. The supernatant was separated and thus obtained supernatant was further centrifuged under 100,000×G for 60 minutes at 4° C., and then filtrated with 0.2 μm filter to obtain the soluble fraction. • (2) The obtained soluble fraction was filled in equilibrium HiTrap Q column (5 mL×2) with buffer solution A, and phosphodiesterase fractions were eluted by 300 mL of buffer solution A with linear gradient from 0 to 0.8 M NaCl concentration. 5 mL each of 60 eluents were collected, and each eluents were examined for cyclic AMP metabolic activities of phosphodiesterase. […] After the reaction, suspension of Sephadex®-QAE in 10 mM of HEPES-Na (pH 7.0) was added to the reaction mixture, and the mixture was left at rest for 5 minutes.

The chains behind the UniProt entries cited, without tags or fusion partners. Where a name states a change or a piece, a line headed by the entry shows the natural chain unless it says otherwise.
UniProt Q13946: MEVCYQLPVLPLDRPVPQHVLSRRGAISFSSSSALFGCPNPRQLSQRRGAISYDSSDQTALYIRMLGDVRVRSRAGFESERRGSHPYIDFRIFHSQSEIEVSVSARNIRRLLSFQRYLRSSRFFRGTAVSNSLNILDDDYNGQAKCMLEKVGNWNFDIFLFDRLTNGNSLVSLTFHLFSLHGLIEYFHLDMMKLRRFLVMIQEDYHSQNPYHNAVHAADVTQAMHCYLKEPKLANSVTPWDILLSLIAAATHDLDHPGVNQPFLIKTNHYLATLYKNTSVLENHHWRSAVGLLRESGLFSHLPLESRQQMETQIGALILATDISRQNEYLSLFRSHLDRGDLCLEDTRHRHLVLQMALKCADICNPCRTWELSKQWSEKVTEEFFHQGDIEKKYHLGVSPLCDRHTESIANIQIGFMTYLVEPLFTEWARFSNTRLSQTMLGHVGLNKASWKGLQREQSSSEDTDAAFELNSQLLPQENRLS

[2] = biological target: PDE 4 (phosphodiesterase IV); test: PDE 4 inhibiting effect (3H-cAMP hydrolysis, PDE 4 active fraction from Balb/c mouse liver); format: biochemical; settings: PDE 4 fraction from Balb/c mice liver, 0.064 μM cAMP, 2 hours at 25° C.; read-out: PDE4 IC50
Protocol: Methods for Evaluating the PDE 4 Inhibiting Effect
The PDE 4 (phosphodiesterase IV) inhibiting effect of the compounds of the present invention was performed by the following method, which was modified assay method described in Biochemical. […] That is, the livers obtained from three Balb/c mice (male, 12 weeks: obtainable from CLEA Japan, Inc.) were suspended with 30 mL of buffer solution B [20 mM of bis-tris, 5 mM of 2-mercaptoethanol, 2 mM of benzamidine, 2 mM of EDTA, 0.1 mM of 4-(2-aminoethyl)benzenesulfonyl hydrochloride, 50 mM of sodium acetate; pH 6.5], then homogenized by Polytron® homogenizer. The homogenate were centrifuged under 25,000×G for 10 minutes at 4° C. The supernatant was separated and thus obtained supernatant was further centrifuged under 100,000×G for 60 minutes at 4° C., and then filtrated with 0.2 μm filter to obtain the soluble fraction. • (2) The obtained soluble fraction was filled in equilibrium DEAE sepharose column (1×10 cm) with buffer solution B, and phosphodiesterase fractions were eluted by 120 mL of buffer solution B with linear gradient from 0.05 to 1M sodium acetate concentration. 5 mL each of 24 eluents were collected, and each eluents were examined for cyclic AMP metabolic activities of phosphodiesterase. […] After the reaction, suspension of Sephadex®-QAE in 10 mM of HEPES-Na (pH 7.0) was added to the reaction mixture, and the mixture was left at rest for 5 minutes.

SMILES	IC50 [1] [nM]	IC50 [2] [nM]
Cc1nn(C2CCCCC2)c2sc(C(=O)Nc3ccc(CN4CCOCC4)nc3)cc12 [Example 412, 1-Cyclohexyl-3-methyl-N-[6-(4-morpholinylmethyl)-3-pyridinyl]-1H-thieno[2,3-c]pyrazole-5-carboxamide methanesulfonate]		4900
Cc1nn(C2CCOCC2)c2sc(C(=O)N[C@H]3CC[C@H](CN4CCOCC4)CC3)cc12 [Example 358, 3-Methyl-N-[trans-4-(4-morpholinylmethyl)cyclohexyl]-1-tetrahydro-2H-pyran-4-yl-1H-thieno[2,3-c]pyrazole-5-carboxamide]	71	11000
Cc1nn(C2CCCCC2)c2sc(C(=O)N[C@H]3CC[C@H](N)CC3)cc12 [Example 132, N-(trans-4-Aminocyclohexyl)-1-cyclohexyl-3-methyl-1H-thieno[2,3-c]pyrazole-5-carboxamide]	88	

Next, values leading:

IC50 [1] [nM]	IC50 [2] [nM]	SMILES
7.8		Cc1nn(C2CCCCC2)c2sc(C(=O)N[C@H]3CC[C@H](C(=O)NC4CC4)CC3)cc12 [Example 238, 1-Cyclohexyl-N-{4-[(cyclopropylamino)carbonyl]cyclohexyl}-3-methyl-1H-thieno[2,3-c]pyrazole-5-carboxamide HCl salt]
9		Cc1nn(C2CCCCC2)c2sc(C(=O)N[C@H]3CC[C@H](N4CCOCC4)CC3)cc12 [Example 133, 1-Cyclohexyl-3-methyl-N-[trans-4-(4-morpholinyl)cyclohexyl]-1H-thieno[2,3-c]pyrazole-5-carboxamide]
18	2000	Cc1nn(C2CCCCC2)c2sc(C(=O)N[C@H]3CC[C@H](C(=O)N(C)CCO)CC3)cc12 [Example 225, 1-Cyclohexyl-N-(4-{[(2-hydroxyethyl)(methyl)amino]carbonyl}-cyclohexyl)-3-methyl-1H-thieno[2,3-c]pyrazole-5-carboxamide]

From US8901315B2, “Thienopyrazole derivative having PDE7 inhibitory activity” (Daiichi Sankyo Company, Limited, priority 2004, dated 2014)
